The record followed here is paper PMC8291497 (ACS Chemical Biology, 2021).

Positions count from the first letter of the chain named. Several values for one entry are separate records, joined by “and”; a condition that tells them apart may be missing. Equal entries are not always repeated.

In assay [1] the target is T1, PARM-pWT (364-570; R455K, C483A, C501A, Y524W, C566A) (Homo sapiens, UniProt Q99767, C483A/C501A/C566A/R455K/Y524W).
T1 construct: PARM-pWT (364-570;); made in house; host or cells: semisynthesis, three-segment approach (expressed fragments plus synthetic segment)
T1 sequence (Q99767 364-570 R455K/C483A/C501A/Y524W/C566A): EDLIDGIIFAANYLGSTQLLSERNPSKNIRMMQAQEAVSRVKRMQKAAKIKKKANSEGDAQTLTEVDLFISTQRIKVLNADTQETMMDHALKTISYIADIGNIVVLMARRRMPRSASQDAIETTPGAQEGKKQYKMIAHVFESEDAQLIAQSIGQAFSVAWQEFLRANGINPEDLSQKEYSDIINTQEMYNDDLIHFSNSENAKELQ
Nature of the assay: Stopped flow binding kinetics, APP A-to-E variants to PARM-pWT. On the procedure: (§1) Kinetic binding rate constants were obtained using an upgraded SX17 stopped flow spectrometer (Applied Photophysics), and all experiments were conducted at 25 °C in 500 mM NaCl and 25 mM HEPES (pH 7.4). The relatively high NaCl concentration was used to improve the solubility of the proteins. The change in tryptophan fluorescence was measured using a band-pass filter (excitation at 280 nm and emission at 330 ± 30 nm) when mixing varying concentrations (2–50 μM) of the dansyl peptides with 1 μM protein or 0.5 μM semisynthetic proteins. […] For PTB variants, we used the kobs value from the fast kinetic phase for the analysis. […] We report the errors in kon and koff from the curve fitting. […] For these koff determinations, we report the standard error of the mean of three replicates. Φ values were defined as ΔΔGTS/ΔΔGeq, where ΔΔGTS = RT ln(kon^WT/kon^mut.) and ΔΔGeq = RT ln(Kd^mut./Keq^WT). Calculated coupling free energies were defined as ΔΔΔGEq = RT ln(Kd^mut.:WTKd^WT:mut./Kd^WT:WTKd^mut.:mut.) or ΔΔΔGTS = RT ln(kon^WT:WTkon^mut.:mut./kon^mut.:WTkon^WT:mut.) as previously described.[27] Propagated errors are reported.

In assay [2] the target is T2, PARM-pWT Y459ψ (Homo sapiens, UniProt Q99767, C483A/C501A/C566A/R455K/Y524W).
T2 construct: PARM-pWT (364-570;); made in house; host or cells: semisynthesis, three-segment approach
T2 sequence (Q99767 364-570 R455K/C483A/C501A/Y524W/C566A): T1 sequence (Q99767 364-570 R455K/C483A/C501A/Y524W/C566A)
As to the kind of experiment: Stopped flow binding kinetics to PARM-pWT A-to-E variant Y459ψ. On the procedure:
as §1

Assay [3] addresses PARM, pseudo-wild type (human Mint2 364-570, Y524W) (human) (UniProt Q99767). Nature of the assay: fluorescence polarisation.
Assay [4] shares this target. As to the kind of experiment: stopped-flow fluorescence kinetics.
The target of assay [5] is PARM^Y543A (human Mint2 364-570, Y524W, Y543A) (human) (UniProt Q99767). As to the kind of experiment: stopped-flow fluorescence kinetics.
Assay [6] concerns the target PARM^Y543E (human Mint2 364-570, Y524W, Y543E) (human) (UniProt Q99767). As to the kind of experiment: stopped-flow fluorescence kinetics.
Assay [7] concerns the target PTB (human Mint2 PTB domain without the ARM linker, residues 364-538, Y524W) (human) (UniProt Q99767). Nature of the assay: stopped-flow fluorescence kinetics.
Assay [8] has as its target PARM-pWT (semisynthetic human Mint2 364-570; R455K, C483A, C501A, Y524W, C566A) (human) (UniProt Q99767). As to the kind of experiment: stopped-flow fluorescence kinetics.
In assay [9] the target is PARM-pWT Y459ψ (amide-to-ester variant of semisynthetic human Mint2 364-570) (human) (UniProt Q99767). Nature of the assay: stopped-flow fluorescence kinetics.
Assay [10] addresses T3, PARM-pWT A461α (Homo sapiens, UniProt Q99767, C483A/C501A/C566A/R455K/Y524W).
T3 construct: PARM-pWT (364-570;); made in house; host or cells: semisynthesis, three-segment approach
T3 sequence (Q99767 364-570 R455K/C483A/C501A/Y524W/C566A): T1 sequence (Q99767 364-570 R455K/C483A/C501A/Y524W/C566A)
Nature of the assay: biochemical. It counts as binding. Here is the method: as §1

In assay [11] the target is T4, Mint2 PARM 364-570 (Y524W), pWT PARM (PTB domain and ARM linker) (Homo sapiens, UniProt Q99767, Y524W).
T4 construct: PARM domain (residues 364–570, i.e., PTB and the ARM linker) containing the Y524W mutation; made in house; host or cells: Escherichia coli BL21(DE3)pLysS
T4 sequence (Q99767 364-570 Y524W): T1 sequence (Q99767 364-570 R455K/C483A/C501A/Y524W/C566A) with K92R, A120C, A138C, A203C
As to the kind of experiment: Stopped flow binding kinetics, APP peptides to PARM (pseudo-wild type). Here is the method: as §1

The target in assay [12] is T5, Mint2 PTB 364-538 (without the ARM linker) (Homo sapiens, UniProt Q99767, Y524W).
T5 construct: PTB without the ARM linker (residues 364–538); made in house; host or cells: Escherichia coli BL21(DE3)pLysS
T5 sequence (Q99767 364-538 Y524W): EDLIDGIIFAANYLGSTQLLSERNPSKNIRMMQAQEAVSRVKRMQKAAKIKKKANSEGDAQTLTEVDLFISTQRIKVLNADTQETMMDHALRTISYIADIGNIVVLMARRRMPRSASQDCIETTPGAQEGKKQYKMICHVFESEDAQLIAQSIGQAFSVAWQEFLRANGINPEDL
Nature of the assay: Stopped flow binding kinetics, APP peptides to PTB. On the procedure:
as §1

Assay [13] has as its target Mint2 PARMWT 364-570 (Homo sapiens, UniProt Q99767). Nature of the assay: biochemical.
For assay [14], the target named is Mint2 PARM 364-570 (Y524W) (Homo sapiens, UniProt Q99767, Y524W). Nature of the assay: biochemical.
In assay [15] the target is T6, Mint2 PARM 364-570 (Y524W, Y543A) (Homo sapiens, UniProt Q99767, Y524W/Y543A).
T6 sequence (Q99767 364-570 Y524W/Y543A): T1 sequence (Q99767 364-570 R455K/C483A/C501A/Y524W/C566A) with K92R, A120C, A138C, Y180A, A203C
As to the kind of experiment: biochemical.

The target in assay [16] is T7, Mint2 PARM 364-570 (Y524W, Y543E) (Homo sapiens, UniProt Q99767, Y524W/Y543E).
T7 sequence (Q99767 364-570 Y524W/Y543E): T1 sequence (Q99767 364-570 R455K/C483A/C501A/Y524W/C566A) with K92R, A120C, A138C, Y180E, A203C
Nature of the assay: biochemical.

Assay [17] deals with Mint2 PTB 364-538 (Homo sapiens, UniProt Q99767, Y524W). As to the kind of experiment: biochemical.
The target of assay [18] is T6, Mint2 PARM 364-570 (Y524W, Y543A). As to the kind of experiment: Stopped flow binding kinetics, APP peptides to PARM^Y543A. Details: PARM domain (residues 364–570, i.e., PTB and the ARM linker); made in house; host or cells: Escherichia coli BL21(DE3)pLysS. Here is the method: as §1
For assay [19], the target named is T7, Mint2 PARM 364-570 (Y524W, Y543E). As to the kind of experiment: Stopped flow binding kinetics, APP peptides to PARM^Y543E. Details: PARM domain (residues 364–570, i.e., PTB and the ARM linker); made in house; host or cells: Escherichia coli BL21(DE3)pLysS. On the procedure: as §1
Assay [20] deals with PTB/PARM. Nature of the assay: ITC.

Consider `C[C@@H](O)[C@H](NC(=O)[C@@H]1CCCN1C(=O)[C@H](CC(N)=O)OC(=O)[C@H](CCC(=O)O)NC(=O)[C@H](Cc1ccc(O)cc1)NC(=O)CNC(=O)[C@H](CC(N)=O)NC(=O)CNC(=O)[C@H](CC(N)=O)NC(=O)[C@H](CC(N)=O)NS(=O)(=O)c1cccc2c(N(C)C)cccc12)C(=O)N[C@@H](Cc1ccc(O)cc1)C(=O)N[C@@H](CCCCN)C(=O)N[C@@H](Cc1ccccc1)C(=O)N[C@@H](Cc1ccccc1)C(=O)N[C@@H](CCC(=O)O)C(=O)O` [Peptide N759η], for which the results for the Kd in [1] and in [2] were 24 µM and 69 ± 8 µM, respectively.

Take “dansyl-APP^Y762pY (dansyl-NNG-NGYENPTpYKFFE) (peptide)”: the Ki in assay [3] worked out at 320 µM. The Kd in assay [4] stood at 302 µM. In addition, the dissociation rate constant (koff) in assay [4] came to 99 s⁻¹; in assay [5], 91 s⁻¹; in assay [6], 91 s⁻¹; in assay [7] it was 111 s⁻¹. The kon stood at 330000 M⁻¹ s⁻¹ in [4], 900000 M⁻¹ s⁻¹ in [5], 1e+06 M⁻¹ s⁻¹ in [6] and 1.4e+07 M⁻¹ s⁻¹ in assay [7].

For the compound “Dansyl-APP^N759ν (Dansyl-NNG-NGYEνPTYKFFE), amide-to-ester variant (peptide)”, in assay [8], the koff was 14.6 s⁻¹ and the kon is 600000 M⁻¹ s⁻¹. In assay [9], this compound registered a koff of 40 s⁻¹ and a kon of 570000 M⁻¹ s⁻¹.

In the case of `C[C@@H](O)[C@H](NC(=O)[C@@H]1CCCN1C(=O)[C@H](CC(N)=O)NC(=O)[C@H](CCC(=O)O)NC(=O)[C@H](Cc1ccc(O)cc1)NC(=O)COC(=O)[C@H](CC(N)=O)NC(=O)CNC(=O)[C@H](CC(N)=O)NC(=O)[C@H](CC(N)=O)NS(=O)(=O)c1cccc2c(N(C)C)cccc12)C(=O)N[C@@H](Cc1ccc(O)cc1)C(=O)N[C@@H](CCCCN)C(=O)N[C@@H](Cc1ccccc1)C(=O)N[C@@H](Cc1ccccc1)C(=O)N[C@@H](CCC(=O)O)C(=O)O` [Peptide G756γ], the values for the Kd in assay [1] and in assay [10] were 4.6 µM and 27 ± 3 µM, respectively.

As for `C[C@H](NC(=O)[C@H](Cc1ccccc1)NC(=O)[C@H](CCCCN)NC(=O)[C@H](Cc1ccc(O)cc1)NC(=O)[C@@H](NC(=O)[C@@H]1CCCN1C(=O)[C@H](CC(N)=O)NC(=O)[C@H](CCC(=O)O)NC(=O)[C@H](Cc1ccc(O)cc1)NC(=O)CNC(=O)[C@H](CC(N)=O)NC(=O)CNC(=O)[C@H](CC(N)=O)NC(=O)[C@H](CC(N)=O)NS(=O)(=O)c1cccc2c(N(C)C)cccc12)[C@@H](C)O)C(=O)N[C@@H](CCC(=O)O)C(=O)O` [Peptide F765A], the Kd in assay [11] is 62 ± 5 µM; in assay [12], 3.4 µM; in assay [18], 31 ± 2 µM; in assay [19], 33 ± 2 µM. The Ki in assay [13] is 89 ± 5 µM; in [14], 68 ± 3 µM; in [15], 24 ± 0.8 µM; in assay [16] it was 18 ± 0.6 µM; in [17], 6.4 µM.

On to `C[C@@H](O)[C@H](NC(=O)[C@@H]1CCCN1C(=O)[C@H](CC(N)=O)NC(=O)[C@H](CCC(=O)O)NC(=O)[C@H](Cc1ccc(O)cc1)NC(=O)CNC(=O)[C@H](CC(N)=O)NC(=O)CNC(=O)[C@H](CC(N)=O)NC(=O)[C@H](CC(N)=O)NS(=O)(=O)c1cccc2c(N(C)C)cccc12)C(=O)N[C@@H](Cc1ccc(O)cc1)C(=O)N[C@@H](CCCCN)C(=O)N[C@@H](Cc1ccccc1)C(=O)NCC(=O)N[C@@H](CCC(=O)O)C(=O)O` [Peptide F765G], for which the Kd is 81 ± 6 µM in assay [11], 4.2 µM in assay [12], 47 ± 5 µM in assay [18] and 43 ± 3 µM in assay [19]. Further, the Ki in assay [13] is 92 ± 6 µM; in assay [14], 88 ± 7 µM; in [15], 28 ± 0.5 µM; in assay [16] it was 21 ± 0.3 µM; in assay [17], 7.5 µM.

On to APP^WT (…) (peptide), for which the stoichiometry N in [20] was 0.9 and 1.1.

`C[C@@H](O)[C@H](NC(=O)[C@@H]1CCCN1C(=O)[C@H](CC(N)=O)NC(=O)[C@H](CCC(=O)O)OC(=O)[C@H](Cc1ccc(O)cc1)NC(=O)CNC(=O)[C@H](CC(N)=O)NC(=O)CNC(=O)[C@H](CC(N)=O)NC(=O)[C@H](CC(N)=O)NS(=O)(=O)c1cccc2c(N(C)C)cccc12)C(=O)N[C@@H](Cc1ccc(O)cc1)C(=O)N[C@@H](CCCCN)C(=O)N[C@@H](Cc1ccccc1)C(=O)N[C@@H](Cc1ccccc1)C(=O)N[C@@H](CCC(=O)O)C(=O)O` [Peptide E758ε]: in [1], the Kd came out at 33 µM.

What is called Ki is a dissociation constant, usually derived from enzyme kinetics or from competition with a known ligand. The term koff denotes the first-order rate constant of dissociation. As usually defined, the kon is a measure of how fast the partners come together. Usually stoichiometry N stands for a count of units in the complex or per binding partner.
